Bounds are passed on as bounds.

Amino acid sequences for entries named in this document (tags omitted). Residues count along the entry.
UniProt P27487, 31-766 limits assumed: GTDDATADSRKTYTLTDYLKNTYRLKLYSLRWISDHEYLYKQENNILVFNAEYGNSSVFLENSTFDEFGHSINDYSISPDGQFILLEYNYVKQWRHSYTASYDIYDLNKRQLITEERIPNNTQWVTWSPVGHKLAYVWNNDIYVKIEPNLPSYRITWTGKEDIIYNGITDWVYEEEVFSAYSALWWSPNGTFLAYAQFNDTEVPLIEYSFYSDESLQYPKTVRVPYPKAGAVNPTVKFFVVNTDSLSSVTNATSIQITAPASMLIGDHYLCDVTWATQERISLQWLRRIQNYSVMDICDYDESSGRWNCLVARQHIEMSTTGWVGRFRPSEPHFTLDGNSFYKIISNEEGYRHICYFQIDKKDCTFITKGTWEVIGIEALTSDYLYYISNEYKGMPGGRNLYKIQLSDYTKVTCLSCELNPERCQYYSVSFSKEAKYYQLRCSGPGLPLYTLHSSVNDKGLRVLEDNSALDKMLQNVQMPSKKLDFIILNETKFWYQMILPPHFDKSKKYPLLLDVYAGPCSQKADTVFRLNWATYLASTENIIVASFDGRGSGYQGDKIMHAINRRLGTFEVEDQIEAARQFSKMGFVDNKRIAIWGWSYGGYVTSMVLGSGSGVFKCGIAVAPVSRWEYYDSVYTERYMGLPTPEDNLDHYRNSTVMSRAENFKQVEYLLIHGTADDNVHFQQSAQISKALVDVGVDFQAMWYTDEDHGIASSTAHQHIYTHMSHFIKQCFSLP

The first assay concerns the target DPP-IV (Homo sapiens, UniProt P27487). As to the kind of experiment: Continuous fluorimetric assay of inhibition of DPP-IV peptidase activity (cleavage of Gly-Pro-AMC). Type of assay: biochemical. The following applies: read-out: IC50 for inhibition of DPP-IV peptidase activity; substrate Gly-Pro-AMC 16 μM, pH 7.4, 25° C., 1% DMSO.
In general, IC50 refers to the concentration that inhibits the measured activity by half. Take `CC(C[C@H](N)Cc1ccccc1F)N1CCC[C@H]1CNS(C)(=O)=O` (single isomer, unassigned): the IC50 was 101 to 1000 nM.

The same assay, now with this note: read-out: IC50 for inhibition of DPP-IV peptidase activity; substrate Gly-Pro-AMC 16 μM, pH 7.4, 25° C., 1% DMSO; tested form: TFA.
Regarding `CC(C[C@H](N)Cc1ccccc1F)N1CCC[C@H]1CNS(=O)(=O)c1ccc(S(C)(=O)=O)cc1` (single isomer, unassigned), the IC50 is < 100 nM.
Same read-out and setting: to `CC(C[C@H](N)Cc1ccccc1F)N1CCC[C@H]1CNS(=O)(=O)Cc1ccccc1` (single isomer, unassigned) [39 major] belongs 101 to 1000 nM; to `CC(C[C@H](N)Cc1ccccc1F)N1CCC[C@H]1CNS(=O)(=O)Cc1ccccc1` (single isomer, unassigned) [39 minor], < 100 nM.
On the same count and under the same terms, under `CC(C[C@H](N)Cc1ccccc1F)N1CCC[C@H]1CNS(=O)(=O)c1cccc(Cl)c1` (single isomer, unassigned) [40 major] stands 101 to 1000 nM.
The same measure, in the same setting: under `CC(C[C@H](N)Cc1ccccc1F)N1CCC[C@H]1CNS(=O)(=O)c1cccc(Cl)c1` (single isomer, unassigned) [40 minor] stands < 100 nM; under `CC(C[C@H](N)Cc1ccccc1F)N1CCC[C@H]1CNS(=O)(=O)C1CC1` (single isomer, unassigned) [42 major], 101 to 1000 nM; under `CC(C[C@H](N)Cc1ccccc1F)N1CCC[C@H]1CNS(=O)(=O)C1CC1` (single isomer, unassigned) [42 minor], < 100 nM.

Still in this assay, the particulars now being: read-out: IC50 for inhibition of DPP-IV peptidase activity; substrate Gly-Pro-AMC 16 μM, pH 7.4, 25° C., 1% DMSO; tested form: bis(trifluoroacetate).
For the compound `CC(C[C@H](N)Cc1ccccc1F)N1CCC[C@H]1CNS(C)(=O)=O` (single isomer, unassigned), the IC50 was < 100 nM.

The values above are taken from US20080176838A1, “Dpp-IV Inhibitors” (SANTHERA PHARMACEUTICALS (DEUTSCHLAND) AG, priority 2004, published 2008).
